A short description of data set [1]: Potency index, ratio of butylated hydroxytoluene IC50 to test compound IC50 for antioxidant activity assessed as DPPH radical scavenging activity. Type of data set: functional. Background: DPPH is a stable violet radical that fades when it is reduced.
Substrate in data set [2]: Ic1ccc(-c2csc(N/N=C/c3cc4ccccc4s3)n2)cc1
As to conditions: Agaricus bisporus; 0.2 mM.

Substrate in data set [3]: C(=N/Nc1nc(C23CC4CC(CC(C4)C2)C3)cs1)\c1cc2ccccc2s1
As to conditions: Agaricus bisporus; 0.2 mM.

Substrate in data set [4]: Cc1ccc(-c2csc(N/N=C/c3cc4ccccc4s3)n2)cc1
As to conditions: Agaricus bisporus; 0.2 mM.

Substrate in data set [5]: Fc1ccc(-c2csc(N/N=C/c3cc4ccccc4s3)n2)cc1
As to conditions: Agaricus bisporus; 0.2 mM.

Substrate in data set [6]: Clc1ccc(-c2csc(N/N=C/c3cc4ccccc4s3)n2)cc1
The following applies: Agaricus bisporus; 0.2 mM.

Substrate in data set [7]: Brc1ccc(-c2csc(N/N=C/c3cc4ccccc4s3)n2)cc1
The following applies: Agaricus bisporus; 0.2 mM.

Substrate in data set [8]: Cc1ccc(-c2csc(N/N=C/c3cc4ccccc4s3)n2)cc1
As to conditions: Agaricus bisporus; 0.2 mM. The source holds these as a separate data set.

Substrate in data set [9]: Fc1ccc(-c2csc(N/N=C/c3cc4ccccc4s3)n2)cc1
The following applies: Agaricus bisporus; 0.2 mM. The source holds these as a separate data set.

Substrate in data set [10]: Clc1ccc(-c2csc(N/N=C/c3cc4ccccc4s3)n2)cc1
The following applies: Agaricus bisporus; 0.2 mM. This is another data set of the same source.

Substrate in data set [11]: Brc1ccc(-c2csc(N/N=C/c3cc4ccccc4s3)n2)cc1
The following applies: Agaricus bisporus; 0.2 mM. The source holds these as a separate data set.

Usually Km stands for the substrate concentration at which the rate is half of its maximum.

In the case of `C(=N\Nc1nc(C23CC4CC(CC(C4)C2)C3)cs1)/c1cc2ccccc2s1`, the Ratio IC50 in [1] is 10.

B1: Tyrosinase (Agaricus bisporus), O42713 (protein)
chain: MSLIATVGPTGGVKNRLNIVDFVKNEKFFTLYVRSLELLQAKEQHDYSSFFQLAGIHGLPFTEWAKERPSMNLYKAGYCTHGQVLFPTWHRTYLSVLEQILQGAAIEVAKKFTSNQTDWVQAAQDLRQPYWDWGFELMPPDEVIKNEEVNITNYDGKKISVKNPILRYHFHPIDPSFKPYGDFATWRTTVRNPDRNRREDIPGLIKKMRLEEGQIREKTYNMLKFNDAWERFSNHGISDDQHANSLESVHDDIHVMVGYGKIEGHMDHPFFAAFDPIFWLHHTNVDRLLSLWKAINPDVWVTSGRNRDGTMGIAPNAQINSETPLEPFYQSGDKVWTSASLADTARLGYSYPDFDKLVGGTKELIRDAIDDLIDERYGSKPSSGARNTAFDLLADFKGITKEHKEDLKMYDWTIHVAFKKFELKESFSLLFYFASDGGDYDQENCFVGSINAFRGTAPETCANCQDNENLIQEGFIHLNHYLARDLESFEPQDVHKFLKEKGLSYKLYSRGDKPLTSLSVKIEGRPLHLPPGEHRPKYDHTQARVVFDDVAVHVIN
As to B1, the Vmax in [2] was -0.0764 abs/min; in [3], -0.0502 abs/min; in data set [4], 0.12 abs/min; in data set [5] it was 0.302 abs/min; in [6], 0.1 abs/min; in data set [7], 0.154 abs/min. The Km in [8] is 703 µM; in data set [9], 2450 µM; in [10], 619 µM; in [11] it was 1050 µM.

For the origin of these results see ChEMBL document CHEMBL4406869, “Benzo[b]thiophene-thiazoles as potent anti-Toxoplasma gondii agents: Design, synthesis, tyrosinase/tyrosine hydroxylase inhibitors, molecular docking study, and antioxidant activity” (Eur J Med Chem, 2019).
